## Measured affinities in a library of Ab-14 heavy chain variants

Target: peptide PDVDLGDISGINAS, taken from heptad repeat 2 (HR2) of SARS-CoV-2 spike.

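Phage display of a naive human antibody library on the peptide gave the parent. Library AAYL49 holds single substitutions and randomly drawn double and triple substitutions in the CDRs. The scFvs were displayed on barcoded MATa yeast, the peptide on MATalpha yeast. Mating (16 h, 30 °C) was followed by selection of diploids and sequencing of their barcodes. A regression on co-assayed BCL2-family reference pairs converts the normalised counts of each replicate to an apparent Kd. Mating was done three times.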

Each scFv is VH, a (GGGGS)3 linker, VL, as in the parent Ab-14, and differs from it in the CDRs of the heavy chain only.
VH: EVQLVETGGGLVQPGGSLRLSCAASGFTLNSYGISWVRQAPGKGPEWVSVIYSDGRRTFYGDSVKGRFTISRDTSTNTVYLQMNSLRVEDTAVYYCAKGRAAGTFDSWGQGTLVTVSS
VL: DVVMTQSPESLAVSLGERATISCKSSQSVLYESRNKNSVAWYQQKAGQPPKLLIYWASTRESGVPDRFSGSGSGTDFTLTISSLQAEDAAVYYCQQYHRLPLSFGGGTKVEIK

Variants are written as CDR1, CDR2 and CDR3 of the heavy chain (limits as in the source). Parent: GFTLNSYGIS, VIYSDGRRTFYGDSVK, GRAAGTFDS. This list gathers variants with a substitution at I51 (VH, numbered from residue 1). Affinities are written as log10 Kd with Kd in nM; a lower number is a better binder. A mean of the replicates is given; it leaves out those without a signal. A pair that was not seen in that replicate is written "ND"; this usually means weak binding, but a binder can also be missed. Three control strains display no target. For library AAYL49, 15% of the pairings with them gave a signal, with a median of 4.06 and one signal in twenty below 2.83, so weak values seen in few replicates may be background.

For DFTLNSYGIS, VHYSFGRRTFYGDSVK, GRAAGTFDS, the assay gave ND, ND, ND.
For GFTLNSYGIS, VHYSDGTRVFYGDSVK, GRAAGTFDS, the assay gave ND, 3.48, 4.71 (mean 4.09).
For GFTWNSYGIS, VNYEDGRRTFYGDSVK, GRAAGTFDS, the assay gave ND, ND, ND.
For RFTLNSYGIS, VMYSDGRRTFYGDSFK, GRAAGTFDS, the assay gave 2.53, 2.17, 3.61 (mean 2.77).
For GFTLNSYGTS, VHYSDGRRTFYGDSVK, GRAAGLFDS, the assay gave ND, 5.05, ND.
For GFTLNMYGIS, VQYSDGRRTFYGDSVR, GRAAGTFDS, the assay gave ND, 2.93, 3.64 (mean 3.29).
For GFTLNSYGIS, VGYSTGRRTFYGDSVK, GRAAGTFDS, the assay gave ND, ND, ND.
For GYTLNSYGIS, VGYSDGRRTFYGDSVK, GRVAGTFDS, the assay gave 1.33, 1.39, 2.56 (mean 1.76).
For GFTLNSRGIS, VSYSDGRRTFYVDSVK, GRAAGTFDS, the assay gave ND, ND, ND.
For GSTLNSYEIS, VVYSDGRRTFYGDSVK, GRAAGTFDS, the assay gave 3.98, ND, 6.42 (mean 5.20).
For GFTLNSYGIS, VYYSDFRRTFYGDSVK, IRAAGTFDS, the assay gave ND, ND, ND.
For GFTLNSYGIS, VSYSDGRRTFYGDSPT, GRAAGTFDS, the assay gave ND, ND, ND.
For GFTVNSYGIS, VGYGDGRRTFYGDSVK, GRAAGTFDS, the assay gave ND, ND, ND.
For GFTLNSYGIS, VGYLDGRRTFYIDSVK, GRAAGTFDS, the assay gave ND, ND, 3.36.
For GFTLVSYGIS, VMYSDGRRTFYGDSMK, GRAAGTFDS, the assay gave 4.75, ND, 5.17 (mean 4.96).
For GFTLNSYGIS, PCYSDGQRTFYGDSVK, GRAAGTFDS, the assay gave 4.62, ND, ND.
For GNTLNSYGIS, VPYSDGRRTFYGDSVK, FRAAGTFDS, the assay gave ND, ND, ND.
For GFTLNSYGIS, VMYVDGRRTFNGDSVK, GRAAGTFDS, the assay gave ND, 2.49, ND.
For GFVLNSYGIS, VGYSDGRRTFYSDSVK, GRAAGTFDS, the assay gave ND, ND, ND.
For GFTLNSYGIS, VYYSDGRRTFYGDSVK, CRAAGTFDS, the assay gave ND, ND, ND.
For GFTLNSYGIS, VTWSDGRRTFYGDSVK, GRAAGTFDL, the assay gave 4.81, ND, ND.
For GFTLNSYGIS, VLYSDGRRMFYGDSVK, GRATGTFDS, the assay gave ND, ND, ND.
For GFTLNSYGIS, VFYSDGRRTFYGYSVK, GRAAGTFDS, the assay gave ND, ND, ND.
For GFTMNSYGIS, VDYSDGNRTFYGDSVK, GRAAGTFDS, the assay gave ND, 4.88, ND.
For GFTLNSYGIS, VFYSDGRVTFYGDSVK, GRHAGTFDS, the assay gave ND, ND, ND.
For GFTLNSVGIS, VYYSDGRRTFYGDSVK, GRAAHTFDS, the assay gave ND, ND, ND.
For GFTLNSYGIS, VEYSDGRRWFYGDSVK, GRAAGTFDS, the assay gave ND, ND, ND.
For GFTLNSYGIS, VVYSDGRRTFYGDSVK, GRAAGTFDS, the assay gave 3.09, ND, ND.
For GFTLNSYGIS, VSYSDGRRTFYGDSVK, GRAAGTGDS, the assay gave ND, ND, ND.
For GFTLNSQGIS, MNYSDGRRTFYGDSVK, GRAAGTFDS, the assay gave ND, ND, 4.93.
For GFTLNSYFIS, VCYSDGRRTFYGDSVK, GRKAGTFDS, the assay gave ND, ND, ND.
For GFTLNSYGIS, VSQSDGRRTFYGDSVK, GRAAGTFLS, the assay gave ND, ND, ND.
For GFTLNSYGIS, FMYSDGRRTFYGDSVK, GTAAGTFDS, the assay gave ND, ND, 3.25.
For GFTLNSYGIS, VMYSDGRRTFYGWSMK, GRAAGTFDS, the assay gave ND, ND, 4.71.

The last 5 entries again:

| CDR-H1 | CDR-H2 | CDR-H3 | replicates, log10 nM | mean log10 Kd (nM) |
|---|---|---|---|---|
| GFTLNSQGIS | MNYSDGRRTFYGDSVK | GRAAGTFDS | ND, ND, 4.93 | 4.93 |
| GFTLNSYFIS | VCYSDGRRTFYGDSVK | GRKAGTFDS | ND, ND, ND | ND |
| GFTLNSYGIS | VSQSDGRRTFYGDSVK | GRAAGTFLS | ND, ND, ND | ND |
| GFTLNSYGIS | FMYSDGRRTFYGDSVK | GTAAGTFDS | ND, ND, 3.25 | 3.25 |
| GFTLNSYGIS | VMYSDGRRTFYGWSMK | GRAAGTFDS | ND, ND, 4.71 | 4.71 |

Parent in this assay: reference entry 0.65, copy in this library 4.11 (one replicate of three).

The measurements come from Engelhart et al. 2022 (doi:10.1038/s41597-022-01779-4) through the FLAb antibody collection.